Reference: US7598223B2, “Methods for producing target cell reactive lymphocytes” (The Board of Trustees of the Leland Stanford Junior …, priority 2004, dated 2009)

Target: tetramer+ CD8+ T cells of patient 520 (their T cell receptors)
Assay: flow cytometry, tetramer staining of patient PBMC

estimated percentage of total CD8+ cells that are also tetramer+/CD8+: 0.12%
Substance: HLA-A*0201/M26 peptide tetramer-phycoerythrin (from UniProt P61769 21-119) (peptide-MHC)
